Consider one molecule from publication PMC5038302 (Antimicrobial Agents and Chemotherapy, 2016).

Sequences of proteins named here, by UniProt entry; tags and fusion partners are left off. Residues count along the entry.
UniProt C7C422, 29-270 M67C: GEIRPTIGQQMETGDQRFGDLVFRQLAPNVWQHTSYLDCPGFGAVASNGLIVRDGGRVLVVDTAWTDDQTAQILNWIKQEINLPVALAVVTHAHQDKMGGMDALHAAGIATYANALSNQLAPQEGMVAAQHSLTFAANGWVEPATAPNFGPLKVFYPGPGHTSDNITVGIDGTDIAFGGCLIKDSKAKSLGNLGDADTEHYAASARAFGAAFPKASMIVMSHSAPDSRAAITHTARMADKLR
UniProt P26918, 28-254: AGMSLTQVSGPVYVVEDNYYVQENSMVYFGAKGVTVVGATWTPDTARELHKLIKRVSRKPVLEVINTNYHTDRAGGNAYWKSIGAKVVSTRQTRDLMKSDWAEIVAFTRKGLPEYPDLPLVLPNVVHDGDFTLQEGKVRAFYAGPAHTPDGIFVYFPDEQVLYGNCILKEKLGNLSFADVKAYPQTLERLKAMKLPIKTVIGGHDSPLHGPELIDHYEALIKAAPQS

The target in data set [1] is 19F-labeled NDM-1* (NDM-1 M67C) (Klebsiella pneumoniae, UniProt C7C422, M67C). Conditions: NDM-1* 0.08 mM, avibactam 2 mM, 50 mM HEPES pH 7.5, 200 mM NaCl, 298 K.
The test system of data set [2] is 19F-labeled SPM-1* (SPM-1 Y152C). The settings on record: SPM-1* 0.08 mM, avibactam 2 mM, 50 mM HEPES pH 7.5, 200 mM NaCl, 298 K.
The target of another data set is CphA (Aeromonas hydrophila, UniProt P26918).

Some results are limits rather than exact numbers.

Consider `NC(=O)[C@@H]1CC[C@@H]2CN1C(=O)N2OS(=O)(=O)O` [avibactam], for which the “Change of protein-bound 19F NMR signals on addition of avibactam” value in data set [1] was “clear shifts and broadening”; in data set [2], “clear shifts and broadening”. Moreover, the “kcat/Km, cacodylate buffer” value on CphA (Caco-2, pH 7) was below 2 M⁻¹ s⁻¹. Besides, at CphA (pH 7.5), the “v0/E0, HEPES buffer” value stood at 0.35 min⁻¹.
